Laboratory results taken from patent US20110124556 (published 2011).

Target: human insulin receptor (HIR) (human, UniProt P06213)
Assay: competition

## FHENFYGWFVRQVSKK [S116]
  Kd: 14 nM
